≈ marks a conversion by molar mass, not a printed value. Where “and” joins values, the source holds several entries; their conditions need not be identical. Equal entries are not always repeated.
Key:
Mus musculus [1] = test: In vivo antitumor activity against P388 Lymphocytic Leukemia measured as Survivors on day 5 at 15.63 mg/kg; 6/6
Mus musculus [2] = test: In vivo antitumor activity against P388 Lymphocytic Leukemia measured as Survivors on day 5 at 31.25 mg/kg; 6/6
Mus musculus [3] = test: In vivo antitumor activity against P388 Lymphocytic Leukemia measured as Survivors on day 5 at 62.5 mg/kg; 6/6
Mus musculus [4] = test: In vivo antitumor activity against P388 Lymphocytic Leukemia in mice at 62.5 mg/kg expressed as T/C value
Mus musculus [5] = test: In vivo antitumor activity against P388 Lymphocytic Leukemia in mice at 15.63 mg/kg expressed as T/C value
Mus musculus [6] = test: In vivo antitumor activity against P388 Lymphocytic Leukemia in mice at 125 mg/kg expressed as T/C value
Mus musculus [7] = test: In vivo antitumor activity against P388 Lymphocytic Leukemia in mice at 31.25 mg/kg expressed as T/C value
Mus musculus [8] = test: In vivo antitumor activity against P388 Lymphocytic Leukemia measured as Survivors on day 5 at 125 mg/kg; 6/6
P388 = test: (§1) Weight difference when tested in vivo for antitumor activity against P388 Lymphocytic Leukemia; weight difference expressed as (T-C)
Mus musculus [9] = test: as §1
Mus musculus [10] = test: In vivo antitumor activity against P388 Lymphocytic Leukemia in mice at 300 mg/kg expressed as T/C value
Mus musculus [11] = test: In vivo antitumor activity against P388 Lymphocytic Leukemia in mice at 1600 mg/kg w.r.t. compound 6 expressed as T/C value; Toxic
Mus musculus [12] = test: In vivo antitumor activity against P388 Lymphocytic Leukemia in mice at 200 mg/kg w.r.t. compound 6 expressed as T/C value
Mus musculus [13] = test: In vivo antitumor activity against P388 Lymphocytic Leukemia measured as Survivors on day 5 at 1600 mg/kg, w.r.t. compound 6; 5/6
Mus musculus [14] = test: (§2) Weight difference when tested in vivo for antitumor activity against P388 Lymphocytic Leukemia w.r.t. compound 6
Mus musculus [15] = test: In vivo antitumor activity against P388 Lymphocytic Leukemia measured as Survivors on day 5 at 150 mg/kg; 6/6
Mus musculus [16] = test: In vivo antitumor activity against P388 Lymphocytic Leukemia measured as Survivors on day 5 at 200 mg/kg, w.r.t. compound 6; 6/6
Mus musculus [17] = test: In vivo antitumor activity against P388 Lymphocytic Leukemia measured as Survivors on day 5 at 37.5 mg/kg; 6/6
Mus musculus [18] = test: In vivo antitumor activity against P388 Lymphocytic Leukemia in mice at 150 mg/kg expressed as T/C value
Mus musculus [19] = test: as §2; remark: listed apart in the source
Mus musculus [20] = test: In vivo antitumor activity against P388 Lymphocytic Leukemia measured as Survivors on day 5 at 75 mg/kg; 6/6
Mus musculus [21] = test: In vivo antitumor activity against P388 Lymphocytic Leukemia measured as Survivors on day 5 at 300 mg/kg; 6/6
Mus musculus [22] = test: In vivo antitumor activity against P388 Lymphocytic Leukemia in mice at 400 mg/kg w.r.t. compound 6 expressed as T/C value
Mus musculus [23] = test: In vivo antitumor activity against P388 Lymphocytic Leukemia in mice at 75 mg/kg expressed as T/C value
Mus musculus [24] = test: In vivo antitumor activity against P388 Lymphocytic Leukemia measured as Survivors on day 5 at 400 mg/kg, w.r.t. compound 6; 6/6
Mus musculus [25] = test: In vivo antitumor activity against P388 Lymphocytic Leukemia in mice at 37.50 mg/kg expressed as T/C value; conditions: dose 37.5 mg/kg
Mus musculus [26] = test: In vivo antitumor activity against P388 Lymphocytic Leukemia measured as survivors on day 5 at 12.5 mg/kg; 6/6
Mus musculus [27] = test: In vivo antitumor activity against P388 Lymphocytic Leukemia in mice at 6.25 mg/kg expressed as T/C value
Mus musculus [28] = test: (§3) In vivo antitumor activity against P388 Lymphocytic Leukemia in mice at 12.5 mg/kg expressed as T/C value
Mus musculus [29] = test: In vivo antitumor activity against P388 Lymphocytic Leukemia in mice at 50 mg/kg expressed as T/C value
Mus musculus [30] = test: In vivo antitumor activity against P388 Lymphocytic Leukemia measured as survivors on day 5 at 25 mg/kg; 6/6
Mus musculus [31] = test: In vivo antitumor activity against P388 Lymphocytic Leukemia in mice expressed as T/C value
Mus musculus [32] = test: In vivo antitumor activity against P388 Lymphocytic Leukemia in mice at 800 mg/kg expressed as T/C value
Mus musculus [33] = test: In vivo antitumor activity against P388 Lymphocytic Leukemia measured as Survivors on day 5 at 100 mg/kg; 6/6
Mus musculus [34] = test: (§4) In vivo antitumor activity against P388 Lymphocytic Leukemia in mice at 100 mg/kg expressed as T/C value
Mus musculus [35] = test: In vivo antitumor activity against P388 Lymphocytic Leukemia measured as survivors on day 5 at 50 mg/kg; 6/6
Mus musculus [36] = test: In vivo antitumor activity against P388 Lymphocytic Leukemia measured as Survivors on day 5 at 50 mg/kg; 6/6
Mus musculus [37] = test: In vivo antitumor activity against P388 Lymphocytic Leukemia measured as Survivors on day 5 at 12.5 mg/kg; 6/6
Mus musculus [38] = test: In vivo antitumor activity against P388 Lymphocytic Leukemia in mice at 200 mg/kg expressed as T/C value w.r.t. compound 6
Mus musculus [39] = test: In vivo antitumor activity against P388 Lymphocytic Leukemia in mice at 400 mg/kg expressed as T/C value w.r.t. compound 6
Mus musculus [40] = test: (§5) In vivo antitumor activity against P388 Lymphocytic Leukemia in mice at 25 mg/kg expressed as T/C value
Mus musculus [41] = test: as §4; remark: listed apart in the source
Mus musculus [42] = test: as §3; remark: listed apart in the source
Mus musculus [43] = test: In vivo antitumor activity against P388 Lymphocytic Leukemia measured as Survivors on day 5 at 1600 mg/kg, w.r.t. compound 6; 6/6
Mus musculus [44] = test: In vivo antitumor activity against P388 Lymphocytic Leukemia measured as Survivors on day 5 at 25 mg/kg; 6/6
Mus musculus [45] = test: as §5; remark: listed apart in the source
Mus musculus [46] = test: In vivo antitumor activity against P388 Lymphocytic Leukemia measured as Survivors on day 5 at 6.25 mg/kg; 6/6
Mus musculus [47] = test: In vivo antitumor activity against P388 Lymphocytic Leukemia measured as survivors on day 5 at 100 mg/kg; 5/5
Mus musculus [48] = test: In vivo antitumor activity against P388 Lymphocytic Leukemia measured as survivors on day 5 at 200 mg/kg; 6/6
Mus musculus [49] = test: In vivo antitumor activity against P388 Lymphocytic Leukemia measured as Survivors on day 5 at 800 mg/kg, w.r.t. compound 6; 6/6
A204 = test: In vitro cytotoxicity against human A204 Rhabdomyosarcoma cell line; format: functional, cell-based
Outline: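 A204 human rhabdomyosarcoma soft-agarose colony assay. 10^4 trypsin/EDTA-dissociated cells in 0.3% agarose over a 0.5% agarose base, in DMEM with 10% FCS, at 37 °C and 5% CO2. Compound was applied in an upper medium layer on day 1 for 24 h, then washed out. Colonies >60 µm were counted after 7–9 days by tetrazolium stain and image analysis. Quadruplicates with vehicle controls, at least four concentrations up to 100 or 1000 µg/mL. IC50 from a monoexponential least-squares fit over at least three preparations, mean ± SE.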

Mus musculus [50] = test: In vivo antitumor activity against P388 Lymphocytic Leukemia in mice at 81 mg/kg expressed as T/C value
Mus musculus [51] = test: In vivo antitumor activity against P388 Lymphocytic Leukemia measured as Survivors on day 5 at 81 mg/kg; 6/6
Mus musculus [52] = test: In vivo antitumor activity against P388 Lymphocytic Leukemia in mice at 20.25 mg/kg expressed as T/C value
Mus musculus [53] = test: In vivo antitumor activity against P388 Lymphocytic Leukemia in mice at 40.50 mg/kg expressed as T/C value; conditions: dose 40.5 mg/kg
Mus musculus [54] = test: In vivo antitumor activity against P388 Lymphocytic Leukemia measured as Survivors on day 5 at 20.25 mg/kg; 6/6
Mus musculus [55] = test: In vivo antitumor activity against P388 Lymphocytic Leukemia in mice at 162 mg/kg expressed as T/C value
Mus musculus [56] = test: In vivo antitumor activity against P388 Lymphocytic Leukemia measured as Survivors on day 5 at 162 mg/kg; 6/6
Mus musculus [57] = test: In vivo antitumor activity against P388 Lymphocytic Leukemia measured as Survivors on day 5 at 40.50 mg/kg; 6/6; conditions: dose 40.5 mg/kg

CC[C@@](O)(C(=O)OCC1=CC[N+]2([O-])CC[C@@H](O)[C@@H]12)c1ccccc1 (some centres undefined)
Survivors (Mus musculus [1]): 6 | Survivors (Mus musculus [2]): 6 | Survivors (Mus musculus [3]): 6 | T/C (Mus musculus [4]): 114% | T/C (Mus musculus [5]): 110% | T/C (Mus musculus [6]): 125% | T/C (Mus musculus [7]): 110% | Survivors (Mus musculus [8]): 6 | Weight difference (P388): -0.8 and -0.7 | Weight difference (Mus musculus [9]): -1.3

CCC(O)(C(=O)OCC1=CC[N+]2([O-])CCC(O)C12)c1ccccc1 (centres undefined)
T/C (Mus musculus [10]): 166% | T/C (Mus musculus [11]): Toxic | T/C (Mus musculus [12]): 140% | Survivors (Mus musculus [13]): 5 | Weight change (Mus musculus [14]): -0.7 | Survivors (Mus musculus [15]): 6 | Survivors (Mus musculus [16]): 6 | Survivors (Mus musculus [17]): 6 | Weight difference (P388): -1.7 [middle of 4 runs] | T/C (Mus musculus [18]): 157% | Weight change (Mus musculus [19]): -2.9 and -1.7 | Survivors (Mus musculus [20]): 6 | Survivors (Mus musculus [21]): 6 | T/C (Mus musculus [22]): 146% | T/C (Mus musculus [23]): 149% | Survivors (Mus musculus [24]): 6 | T/C (Mus musculus [25]): 146%

CC(O)(C(=O)OCC1=CC[N+]2([O-])CCC(O)C12)c1ccccc1 (centres undefined)
Survivors (Mus musculus [26]): 6 | T/C (Mus musculus [27]): 105% | T/C (Mus musculus [28]): 105% | T/C (Mus musculus [29]): 140% | Survivors (Mus musculus [30]): 6 | T/C (Mus musculus [31]): 166% | T/C (Mus musculus [32]): 196% | Survivors (Mus musculus [33]): 6 | T/C (Mus musculus [34]): 198% | Survivors (Mus musculus [35]): 6 | Survivors (Mus musculus [36]): 6 | Survivors (Mus musculus [37]): 6 | T/C (Mus musculus [38]): 152% | T/C (Mus musculus [39]): 175% | T/C (Mus musculus [40]): 139% | Survivors (Mus musculus [16]): 6 | T/C (Mus musculus [41]): 180% | T/C (Mus musculus [42]): 136% | Weight change (Mus musculus [19]): -2.6 [middle of 4 runs] | Survivors (Mus musculus [43]): 6 | Survivors (Mus musculus [44]): 6 | T/C (Mus musculus [45]): 96% | Survivors (Mus musculus [24]): 6 | Survivors (Mus musculus [46]): 6 | Survivors (Mus musculus [47]): 5 | Survivors (Mus musculus [48]): 6 | Survivors (Mus musculus [49]): 6

CC[C@](O)(C(=O)OCC1=CC[N+]2([O-])CC[C@@H](O)[C@@H]12)c1ccccc1 (some centres undefined)
IC50 (A204): 11 µg/mL (≈ 33 µM) | T/C (Mus musculus [50]): 169% | Survivors (Mus musculus [51]): 6 | T/C (Mus musculus [52]): 143% | T/C (Mus musculus [53]): 151% | Weight difference (P388): -2.4 [middle of 4 runs] | Survivors (Mus musculus [54]): 6 | T/C (Mus musculus [55]): 214% | Survivors (Mus musculus [56]): 6 | Survivors (Mus musculus [57]): 6
